Results on one compound are retold here after patent US9845295B2, “Triphenylethylene compounds and uses thereof” (Purdue Research Foundation, priority 2015, dated 2017).

Sequences of proteins named here, by UniProt entry; tags and fusion partners are left off. A change or cut given only in a name is not applied to a line headed by its entry.
UniProt P11511: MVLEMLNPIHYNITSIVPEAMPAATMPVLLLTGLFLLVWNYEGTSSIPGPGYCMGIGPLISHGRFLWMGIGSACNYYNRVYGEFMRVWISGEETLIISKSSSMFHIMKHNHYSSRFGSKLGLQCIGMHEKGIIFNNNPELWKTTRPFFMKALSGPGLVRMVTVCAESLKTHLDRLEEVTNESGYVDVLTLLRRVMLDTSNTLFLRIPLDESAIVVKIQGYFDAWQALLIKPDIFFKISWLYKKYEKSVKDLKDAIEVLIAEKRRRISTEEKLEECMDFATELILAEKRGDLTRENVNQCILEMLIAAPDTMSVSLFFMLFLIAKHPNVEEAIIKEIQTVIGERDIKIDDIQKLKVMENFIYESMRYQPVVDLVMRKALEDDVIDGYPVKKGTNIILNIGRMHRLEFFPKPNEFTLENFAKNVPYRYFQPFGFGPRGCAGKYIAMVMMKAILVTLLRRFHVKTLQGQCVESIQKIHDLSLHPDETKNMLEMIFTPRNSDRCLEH

The test concerns the target T1, recombinant human aromatase (CYP19) (Homo sapiens, UniProt P11511).
T1 construct: purchased BD Biosciences (San Jose, Calif.)
Nature of the test: Inhibition of recombinant human aromatase (CYP19) by microsomal incubations (MFC fluorometric substrate). It is filed as biochemical. The settings on record: vs compound 7.

Where only a bound is given, the exact number is not on record here.

As to `CC/C(=C(\c1ccc(O)cc1)c1ccc(OCCN)cc1)c1ccccc1` [(E,Z)-norendoxifen, reference compound], the “fold improvement/increase in aromatase inhibitory activity compared with 7” value is > 240 fold.
